Experimental data taken from ChEMBL document CHEMBL4811245, “Design, synthesis and biological evaluation of brain penetrant benzazepine-based histone deacetylase 6 inhibitors for alleviating stroke-induced brain infarction” (Eur J Med Chem, 2021).

Legend:
in vivo [1] = conditions: C57, mouse, brain/plasma, ip, 20 mg/kg
in vivo [2] = conditions: C57, mouse, brain/plasma, ip, 20 mg/kg; remark: listed apart in the source
in vivo [3] = conditions: C57BL/6, mouse, brain/plasma, ip, 20 mg/kg

- Kp at 4 h (in vivo [1]): 3.28
- Kp at 1 h (in vivo [2]): 1.89
- Kp (in vivo [3]): 2.54
SMILES: O=C(NO)c1ccc(CN2CCCc3cc(Cl)ccc32)cc1
